# Ab-14 light chain CDR variants: yeast mating affinities

Data: MIT Lincoln Laboratory AlphaSeq set, Li et al. 2023, doi:10.1038/s41467-023-39022-2, as distributed in FLAb.

All variants were tested on one target, the spike HR2 peptide PDVDLGDISGINAS (SARS-CoV-2).

The variants keep the heavy chain, the linker and the frameworks of Ab-14 (scFv order VH, a 15-residue (Gly4Ser)3 linker, VL).
VH: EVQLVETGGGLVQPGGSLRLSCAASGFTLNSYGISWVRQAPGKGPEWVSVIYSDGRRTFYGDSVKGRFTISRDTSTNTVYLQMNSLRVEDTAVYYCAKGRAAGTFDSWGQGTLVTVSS
VL: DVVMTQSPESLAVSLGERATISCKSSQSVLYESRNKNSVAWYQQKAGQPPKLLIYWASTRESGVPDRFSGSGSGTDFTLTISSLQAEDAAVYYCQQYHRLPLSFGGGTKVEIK

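The parent was found by panning a naive human phage display library on the peptide. This is the validation round: designs drawn from the data on random variants, tested in the same kind of assay. Several design methods are mixed in this list. The scFvs were displayed on barcoded MATa yeast, the peptide on MATalpha yeast. Binding brings cells together so that they mate, and sequencing counts the barcode pairs among the diploids. Scores were corrected for input abundance and mapped to Kd with protein pairs of known affinity run in the same pool. Each pool was mated in six replicate cultures.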

Each variant is given by its three light chain CDRs, as the data file delimits them; those of the parent are KSSQSVLYESRNKNSVA, WASTRES, QQYHRLPLS. Variants here have more than six changes. Values are log10 of the apparent Kd in nM; lower means stronger binding. Replicates are averaged; those with no signal do not enter the mean. A pair that was not seen in any replicate is written "nd"; this usually means weak binding, but a binder can also be missed. Three control strains display no target. For all light chain designs, 4% of the pairings with them gave a signal, with a median of 2.64 and one signal in twenty below 1.59, so weak values seen in few replicates may be background. For each scFv, signals with the empty controls are counted beside the result. The authors' rule: three or more of the six replicates give a measured affinity, fewer mean a poor binder. Of ten entries with the parent sequence, four were seen in most replicates (averages 0.34 to 2.37), three in one and three in none, so single entries are noisy. The range of this assay differs from that of the first round, and the authors advise against merging the two.

With KMSQSVPYEERNLNNVA / NGSTRCS / QQYHRLPLS the result was 0.16 (6 of 6 replicates; controls 1 of 18).
With KIGMTLNTLMHQKNNVA / DLVEREN / QQYYRLPLS the result was 0.37 (6 of 6 replicates; controls 0 of 18).
With MITEIFDNKGDQRSNVA / NGETLFH / QQYDRLPFL the result was 1.02 (6 of 6 replicates; controls 1 of 18).
With TISNSFNMENQFKNSVA / QASTRES / QCYDRLPLS the result was 0.90 (6 of 6 replicates; controls 0 of 18).
With SLTKLETVGQKKSENIA / DQSMRYE / QQYSRLPLK the result was 0.15 (6 of 6 replicates; controls 1 of 18).
With TITQVTMVESYNKNSVA / QASTRLE / QDYHRLPLS the result was 2.01 (6 of 6 replicates; controls 1 of 18).
With TIGASLMYGSRNRSNVA / EVSERLN / QQYDRLPLE the result was 1.52 (6 of 6 replicates; controls 0 of 18).
With KISMTSENQLKNRNSVA / ELVTRVN / QQYNRLPLS the result was 0.35 (6 of 6 replicates; controls 1 of 18).
With HVHMEFAEEKNIKYNIA / DASMRLA / QQYVRLPLG the result was 0.12 (6 of 6 replicates; controls 2 of 18).
With KLSFLGNYEQRNCNSVA / SASTRCS / QQYHRLPLS the result was 0.27 (6 of 6 replicates; controls 2 of 18).
With KVSQSQLYEQRMKQSVA / NASERES / QQYHRLPLS the result was 0.37 (6 of 6 replicates; controls 1 of 18).
With KLQWQQYGENAMEAAIA / NEGTVHQ / QQYSMLPLT the result was nd (0 of 6 replicates; controls 0 of 18).
With FIMHFGEEANLNSKNIA / AKNTRVD / QQYNRLPLS the result was 0.83 (6 of 6 replicates; controls 0 of 18).
With KLSQSDEYESRQFNSVA / NASTRMQ / QQYHRLPLS the result was 0.42 (6 of 6 replicates; controls 2 of 18).
With MVNSIMDHLSKQTNNVA / ETVTREE / QQYDRLPLS the result was 1.14 (6 of 6 replicates; controls 0 of 18).
With TLGDVTRMESNKKDSIA / DMSNRAD / QQYHRLPLS the result was -0.45 (6 of 6 replicates; controls 0 of 18).
With SISQFMKSLSAHINNVA / DMTNREN / QQYDRLPLS the result was 1.39 (2 of 6 replicates; controls 0 of 18).
With KLMQEWLYESRLANSVA / NASQRLE / QQYHRLPLS the result was 0.05 (6 of 6 replicates; controls 3 of 18).
With TLGTSTLEESRNKNSVA / EMSMRES / QSYNRLPLS the result was 1.96 (3 of 6 replicates; controls 1 of 18).
With KLSQVTEYESRNKNNVA / DLTMRGS / QDYHRLPLS the result was -0.24 (6 of 6 replicates; controls 0 of 18).
With HLSDTVMQGSYYRNSVA / QESTRAE / QQYHRLPLS the result was 0.01 (6 of 6 replicates; controls 1 of 18).
With NISIEDVSEHNQANNVA / STDCRCD / QQYFHLPLM the result was 0.75 (6 of 6 replicates; controls 0 of 18).
With KISMLYNYASTNKNSIA / EMTTREM / QHYHRLPLS the result was 1.04 (6 of 6 replicates; controls 1 of 18).
With KLDQSWWRESRNKNSVA / QASTREQ / QQYHRLPLS the result was 0.06 (6 of 6 replicates; controls 1 of 18).
With KFMMSGEYQMHEQNNIA / QGNIKFK / QQYFRLPIT the result was 0.60 (6 of 6 replicates; controls 1 of 18).
With KLSVSWLFQSIEKNSVA / ERSTRES / QDYNRLPLS the result was 0.63 (6 of 6 replicates; controls 0 of 18).
With NMKVGLNFGDIQHQAIA / EVEKRES / QQYARLPLT the result was 0.27 (6 of 6 replicates; controls 1 of 18).
With HMSALTLMGTRNRNSVA / QMTTREN / QQYDRLPLT the result was 0.62 (6 of 6 replicates; controls 2 of 18).
With KLSQSDWMESRNVNNVA / EASQRES / QQYHRLPLS the result was 0.19 (6 of 6 replicates; controls 2 of 18).
With HISDLIMVASRNKNSVA / DENARPD / QQYHRLPLS the result was 0.08 (6 of 6 replicates; controls 0 of 18).
With KLSVSMLLESFHKNNVA / ENSTREE / QHYHRLPLS the result was 2.04 (6 of 6 replicates; controls 1 of 18).
With KVAQGIYEPKRHSHNIA / EVSHLCD / QQYARLPLE the result was 0.92 (6 of 6 replicates; controls 1 of 18).
With TISQMYFIESKNRNNVA / EMTTREN / QDYDRLPLS the result was nd (0 of 6 replicates; controls 0 of 18).
With KLSMMYQHTSRQKNNIA / ERSTREE / QQYHHLPLS the result was 1.12 (6 of 6 replicates; controls 1 of 18).
With ILYESVGTLSRNKNSVA / DNSTREK / QQYDRLPLS the result was 2.38 (2 of 6 replicates; controls 1 of 18).
With IVSQLMLWGWHAKNSIA / EAQTRVN / QQYDRLPLI the result was 1.95 (2 of 6 replicates; controls 0 of 18).
With TISGVMMQMSHSKNNVA / EVSMRLD / QQYFRLPLE the result was 1.47 (6 of 6 replicates; controls 0 of 18).

Repeated from above, the 3 best binders with a signal in all replicates:

With TLGDVTRMESNKKDSIA / DMSNRAD / QQYHRLPLS the result was -0.45 (6 of 6 replicates; controls 0 of 18).
With KLSQVTEYESRNKNNVA / DLTMRGS / QDYHRLPLS the result was -0.24 (6 of 6 replicates; controls 0 of 18).
With HLSDTVMQGSYYRNSVA / QESTRAE / QQYHRLPLS the result was 0.01 (6 of 6 replicates; controls 1 of 18).